Screening results (PubChem)
Compounds with a hit are over-represented: about 0.73% of the library has one in this group of screens.
RAD52 anneal inh = RAD52 DNA annealing inhibitors, primary screen, biochemical, FRET, single point, set 2; DNA repair protein RAD52 homolog (Homo sapiens), P43351; recombinant RAD52 DNA annealing, FRET fluorescence; inhibition, % at 18.7 µM; 0.46% of 360,000 active; AID 651710, 2012;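 active = every replicate showing at least 50% inhibition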
XiGFP reactiv = activators of inactive X chromosome reactivation, primary screen, imaging, XiGFP fibroblasts, GFP high-content imaging, set 2; activation, % at 7.58 µM; AID 743238, 2013; 0.055% of 360,000 active; XiGFP mouse fibroblasts, % GFP-positive cells imaging, 3 d; cells co-treated with 5-aza-dC sensitizer; scaled so ellipticine positive control = 100%;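 active = mean normalized replicate activation at least 10% and every replicate at or above 10%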;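 also: 0% = median of on-plate neutral control wells and 100% = ellipticine 6 µM median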
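System: 68-5-11 XiGFP fibroblast line | Buffer or medium: DMEM containing 5-aza-dC | Compound: Single point | Times: Compounds 3 days, fix/stain 15 min at room temperature | Benchmarks: Positive control ellipticine, 6 µM final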
RAD54 branch = inhibitors of human RAD54 branch migration, primary screen, biochemical, fluorescence, single point; RAD54 Holliday junction branch migration, FAM/BHQ fluorescence; inhibition, % at 10.4 µM; 0.14% of 360,000 active; AID 602329, 2012;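 active = mean normalized replicate activity at least 40 and at least half of replicates scoring 40 or more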;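 also: 0% = median of neutral control wells and 100% = median of positive control wells; inhibitors cause a drop in the FAM fluorescence signal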
Yeast UUG start-1 = modulators of start codon recognition fidelity in yeast; activity score, % at 18.7 µM; actives 0.13% (n = 350,000); S. cerevisiae UUG-firefly luciferase reporter, luminescence/redox ratio;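 active = replicate mean at a twofold rise or more, about +100% in these data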;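 note: firefly luciferase made from a UUG start codon reports start codon fidelity; reporter light over untreated wells divided by growth signal over untreated wells; some hits fall short of that in this replicate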
E-sel inducer = E-selectin induction in HUVECs, primary screen, imaging, HUVEC, immunofluorescence imaging, single point; normalized: neutral wells 0, TNF-alpha wells 100; activation, % at 7.58 µM; 0.37% of 260,000 active; AID 686992, 2013;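 active = mean E-selectin-positive cell signal at least 10% of the positive control, reached in at least 60% of replicates, without over 20% cell loss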
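Test system: HUVEC; input: 3,000 HUVEC/well; measured by: immunofluorescence imaging; read-out: % PE-positive cells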
Yeast UUG start-2 = enhancers of UUG start codon usage in yeast, dose response, S. cerevisiae, UUG firefly luciferase, cherry-pick, set 2; shares compounds with Yeast UUG start-1; luminescence, 4 h; 100% means double the DMSO signal; activation, % at 38 µM; 540 tested, under 10 active; AID 652061, 2013;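 active = signal increase whose fitted curve reaches an absolute level of 40 at a concentration under 10 µM; inactive = activity opposite to the expected increase, or the rest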
Numbers without * were called inactive; i = inactive; · = not tested or not shown.

Protein sequences, listed by entry. Tags and fused reporters are not part of them.
DNA repair protein RAD52 homolog (Homo sapiens), P43351, UniProt P43351, whole entry, looked up: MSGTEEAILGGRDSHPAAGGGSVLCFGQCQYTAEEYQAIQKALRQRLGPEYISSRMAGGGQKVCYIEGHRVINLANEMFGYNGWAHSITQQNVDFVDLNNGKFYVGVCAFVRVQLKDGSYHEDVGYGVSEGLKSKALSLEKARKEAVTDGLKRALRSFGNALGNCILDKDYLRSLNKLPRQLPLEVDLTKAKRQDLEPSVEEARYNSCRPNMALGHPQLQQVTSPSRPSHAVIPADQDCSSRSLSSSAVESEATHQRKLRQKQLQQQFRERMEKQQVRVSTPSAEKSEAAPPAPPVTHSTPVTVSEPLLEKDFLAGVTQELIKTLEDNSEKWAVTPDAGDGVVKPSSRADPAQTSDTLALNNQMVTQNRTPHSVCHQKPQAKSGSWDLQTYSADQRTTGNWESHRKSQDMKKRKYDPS

SMILES | RAD52 anneal inh | XiGFP reactiv | RAD54 branch | Yeast UUG start-1 | E-sel inducer | Yeast UUG start-2
COC(=O)c1c2oc(c1C(=O)OC)C(=O)N[C@@H](Cc1ccccc1)Cn1cc(nn1)[C@@H](Cc1ccccc1)NC(=O)N[C@@H](CO)CC2 | 23.3 | · | · | · | · | ·
COC(=O)c1c2oc(c1C(=O)OC)C(=O)N[C@H](Cc1ccccc1)Cn1cc(nn1)CNC(=O)[C@H](Cc1ccccc1)NC(=O)N[C@@H](CO)CC2 | 5.5 | · | 1.1 | 215.9* | · | i
COC(=O)C1=C2CC[C@H](CO)NC(=O)N[C@H](Cc3ccccc3)C(=O)NCc3cn(nn3)C[C@@H](Cc3ccccc3)NC(=O)c3oc(c(C(=O)OC)c3C(=O)OC)CC[C@H](CO)NC(=O)N[C@H](Cc3ccccc3)C(=O)NCc3cn(nn3)C[C@@H](Cc3ccccc3)NC(=O)C(=C1C(=O)OC)O2 | 14.8 | · | 2.7 | 62.8 | · | ·
CCN(CC)S(=O)(=O)c1ccc(NC(=O)COC(=O)CCc2cc(OC)c(OC)c(OC)c2)cc1 | · | 0.3 | · | · | · | 2.1
COc1cc(CCC(=O)OCC(=O)Nc2cccc(S(=O)(=O)N(C)C)c2)cc(OC)c1OC | 2.4 | 0.4 | · | · | 3.1 | ·
CN1C(=O)c2cc(NC(=O)Cc3cccs3)ccc2OC[C@@H]2O[C@@H](CC(=O)N[C@H]3CCN(Cc4ccccc4)C3)CC[C@@H]21 | 11.3 | 0.2 | -2.0 | · | 0.1 | ·
CCOc1ccccc1NC(=O)NC(=O)N(C)S(C)(=O)=O | 1.4 | 0.0 | 2.2 | 436.2* | · | -6.1
CCCCN(C(=O)NC(=O)Nc1ccccc1OCC)S(C)(=O)=O | · | · | -8.9 | -11.2 | · | ·
C[C@@H]1CN([C@@H](C)CO)C(=O)Cc2cc(NS(=O)(=O)c3ccccc3)ccc2O[C@@H]1CN(C)Cc1ccc(C(F)(F)F)cc1 | 5.7 | 0.1 | -2.1 | -9.2 | 21.2 | ·
CC(C)NC(=O)N(C)C[C@@H]1Oc2ccc(NC(=O)Nc3cccc4ccccc34)cc2C(=O)N([C@@H](C)CO)C[C@@H]1C | -15.7 | -1.0 | -3.3 | 150.5* | 1.1 | i
C[C@@H]1CN([C@@H](C)CO)C(=O)Cc2cc(NS(=O)(=O)c3ccccc3)ccc2O[C@H]1CN(C)Cc1ccc(C(F)(F)F)cc1 | 9.2 | 0.0 | -2.9 | 159.4* | 0.3 | i
C[C@H]1CCCCO[C@@H](CN(C)Cc2ccccc2)[C@@H](C)CN([C@@H](C)CO)C(=O)c2cc(NC(=O)c3ccccc3)ccc2O1 | · | 0.1 | -5.6 | 147.1* | · | i
O=C(c1ccccn1)N1C[C@H]2[C@@H](c3ccccc31)[C@@H](CO)N2C(=O)c1ccccn1 | -15.6 | 0.0 | 2.7 | -14.4 | 0.6 | ·
C[C@H](CO)N1C[C@H](C)[C@@H](CN(C)C(=O)Nc2ccc3c(c2)OCO3)Oc2c(NC(=O)c3ccc(-c4nccs4)cc3)cccc2C1=O | 8.9 | -0.6 | 6.0 | 20.5 | -1.4 | ·
C[C@H]1CN([C@@H](C)CO)C(=O)c2cccc(NC(=O)c3ccncc3)c2O[C@H]1CN(C)Cc1ccccc1 | -17.2 | 0.2 | -5.0 | -15.7 | -0.4 | ·
O=C(CCN1CCCCC1)NCC[C@H]1CC[C@H](NC(=O)C2CCCC2)[C@H](CO)O1 | 20.0 | 0.3 | -18.4 | 166.9* | 0.6 | i
CC(C)c1cn(CC[C@@H]2CC[C@H](NC(=O)C3CCCCC3)[C@H](CO)O2)nn1 | 0.2 | 0.2 | -12.5 | 100.1* | 0.0 | i
Cc1ccccc1S(=O)(=O)NCC[C@H]1CC[C@@H](NC(=O)C2CCCCC2)[C@@H](CO)O1 | -1.0 | 0.1 | 0.6 | 9.2 | -0.4 | ·
Cc1ccccc1S(=O)(=O)NCC[C@H]1CC[C@H](NC(=O)C2CCCCC2)[C@H](CO)O1 | 38.5 | 0.0 | -16.0 | 210.9* | 0.0 | i
COc1ccccc1S(=O)(=O)N[C@H]1CC[C@H](CCNC(=O)C2CCCC2)O[C@H]1CO | 8.9 | -0.1 | -49.8 | 224.0* | 0.0 | i
CC(C)c1cn(CC[C@@H]2CC[C@@H](NC(=O)C3CCCC3)[C@H](CO)O2)nn1 | 1.6 | 0.1 | 8.0 | 12.8 | -0.2 | ·
C[C@H]1CN([C@@H](C)CO)C(=O)c2cccc(NC(=O)Nc3ccc(C(F)(F)F)cc3)c2O[C@@H]1CN(C)Cc1ccc(C(=O)Nc2ccccc2N)cc1 | -14.0 | -0.5 | · | · | 8.4 | ·
CO[C@H]1CN(C)C(=O)c2cc(NC(=O)Nc3ccc(F)cc3)ccc2OC[C@@H](C)NC[C@H]1C | 0.2 | -0.1 | -0.2 | -2.9 | 0.0 | ·
COCC(=O)N1[C@H](CO)[C@@H](c2ccc(-c3ccccc3)cc2)C12CN(C(C)=O)C2 | -5.8 | 0.0 | · | · | 0.0 | ·

Record cards, as listed above:
`Cc1ccccc1S(=O)(=O)NCC[C@H]1CC[C@@H](NC(=O)C2CCCCC2)[C@@H](CO)O1` is entered as RAD52 anneal inh = -1.0; XiGFP reactiv = 0.1; RAD54 branch = 0.6; Yeast UUG start-1 = 9.2; E-sel inducer = -0.4; Yeast UUG start-2 = ·
`O=C(CCN1CCCCC1)NCC[C@H]1CC[C@H](NC(=O)C2CCCC2)[C@H](CO)O1` is entered as RAD52 anneal inh = 20.0; XiGFP reactiv = 0.3; RAD54 branch = -18.4; Yeast UUG start-1 = 166.9*; E-sel inducer = 0.6; Yeast UUG start-2 = i

An excerpt from above in order of formula weight, rising:
SMILES | RAD52 anneal inh | XiGFP reactiv | RAD54 branch | Yeast UUG start-1 | E-sel inducer | Yeast UUG start-2
O=C(c1ccccn1)N1C[C@H]2[C@@H](c3ccccc31)[C@@H](CO)N2C(=O)c1ccccn1 | -15.6 | 0.0 | 2.7 | -14.4 | 0.6 | ·
COc1ccccc1S(=O)(=O)N[C@H]1CC[C@H](CCNC(=O)C2CCCC2)O[C@H]1CO | 8.9 | -0.1 | -49.8 | 224.0* | 0.0 | i
CO[C@H]1CN(C)C(=O)c2cc(NC(=O)Nc3ccc(F)cc3)ccc2OC[C@@H](C)NC[C@H]1C | 0.2 | -0.1 | -0.2 | -2.9 | 0.0 | ·

Next section.
SMILES | RAD52 anneal inh | XiGFP reactiv | RAD54 branch | Yeast UUG start-1 | E-sel inducer | Yeast UUG start-2
CC(C)NC(=O)Nc1cccc2c1O[C@@H](CN(C)Cc1ccc(-c3ccccc3)cc1)[C@@H](C)CN([C@H](C)CO)C2=O | -3.1 | -0.2 | 15.4 | 4.5 | -0.1 | ·
CO[C@H]1CN(C)C(=O)c2cc(NS(=O)(=O)CC(F)(F)F)ccc2OC[C@@H](C)N(Cc2nccs2)C[C@H]1C | -31.4 | 0.5 | -6.5 | · | -0.1 | ·
COC(=O)C[C@@H]1C[C@@H]2c3cc(NC(=O)Nc4ccccc4F)ccc3O[C@@H]2[C@@H](CO)O1 | 32.6 | 0.2 | -22.2 | 71.5* | 0.5 | i
COCCNC(=O)C[C@H]1C[C@@H]2c3cc(NC(=O)c4ccc5c(c4)OCO5)ccc3O[C@@H]2[C@@H](CO)O1 | -2.9 | 0.1 | -2.3 | 6.7 | 0.6 | ·
COCCNC(=O)C[C@H]1C[C@H]2c3cc(NC(=O)c4ccc5c(c4)OCO5)ccc3O[C@H]2[C@@H](CO)O1 | 3.2 | 0.2 | -14.3 | 136.8* | 0.6 | i
O=C(O)C[C@@H]1C[C@H]2c3cc(NC(=O)Nc4ccccc4F)ccc3O[C@H]2[C@H](CO)O1 | 8.4 | 0.0 | 7.2 | 5.0 | 1.7 | ·
CCCN(C)C[C@H]1OCCCC[C@@H](C)Oc2ccc(NC(=O)Nc3ccc(OC)cc3)cc2C(=O)N([C@H](C)CO)C[C@@H]1C | 13.7 | -1.2 | 5.2 | -7.6 | -0.2 | ·
Cc1ccccc1NC(=O)c1cccc(S(=O)(=O)N2CCCCC2)c1 | -8.9 | 0.0 | 3.1 | 16.2 | · | ·
CNC(=O)c1ccccc1NC(=O)c1cccc(S(=O)(=O)N2CCCCC2)c1 | -5.0 | 0.0 | -3.7 | 188.3* | 0.8 | -3.0
Cc1noc(C)c1NC(=O)N(C)C[C@@H]1Oc2ncc(C#CC3CC3)cc2C(=O)N([C@H](C)CO)C[C@H]1C | 7.2 | -0.2 | 3.6 | 4.5 | 0.3 | ·
O=C(NNc1c(Cl)cc(Cl)cc1Cl)c1n[nH]c(=O)c2ccccc12 | 0.4 | -0.1 | 3.4 | 209.1* | · | -3.3
NNC(=O)c1n[nH]c(=O)c2ccccc12 | -18.7 | -0.2 | 5.5 | -21.4 | 0.2 | ·
